US9409891B2, “Solid forms of an antiviral compound” (Gilead Sciences, Inc., priority 2012, dated 2016)

Experiments:
[1] = Follow-up stable form screening (Form II stirred in solvents at about 22° C.); format: physicochemical; details: EtOH/water (52/48), Form II start, value for Form V
Method: In the follow-up stable form screening experiments, the starting materials were Form II. The solids were stirring in the solvents list below at about 22° C. in 2 ml vials.

[2] = Stable form competition study in ACN; format: physicochemical
Method: To further verify the stability of Form II, competitive crystallization was conducted by adding Forms I through V into a high concentration solution of amorphous Compound I in ACN. […] The mother liquor obtained, which was saturated in terms of Form II, was used in another test in which other forms (Forms I, III, IV and V) were added.

| Substance | Solubility [1] [mg/mL] | Behaviour of solids added to mother liquor saturated in Form II [2] |
| --- | --- | --- |
| 5-(3,3-dimethylbutyn-1-yl)-3-[(cis-4-hydroxy-4-{[(3S)-tetrahydrofuran-3-yloxy]methyl}cyclohexyl){[(1R)-4-methylcyclohex-3-en-1-yl]carbonyl}amino]thiophene-2-carboxylic acid solvate [Form V] | 8 | dissolved quickly |
| 5-(3,3-dimethylbutyn-1-yl)-3-[(cis-4-hydroxy-4-{[(3S)-tetrahydrofuran-3-yloxy]methyl}cyclohexyl){[(1R)-4-methylcyclohex-3-en-1-yl]carbonyl}amino]thiophene-2-carboxylic acid hydrate and/or solvate [Form III] |  | dissolved quickly |
